According to US20110243927A1:

Target: human epidermal growth factor receptor 2 (HER-2) (human) (UniProt P04626)
Test: cell-based or functional assay

## trastuzumab (…, Genentech) (antibody)
  % Inhibition of cell growth, SKBr3 cells (HER-2+), SRB assay, 5 days, trastuzumab alone at 0.08 µg/ml: 31.2%
  % Inhibition of cell growth, SKBr3 cells (HER-2+), SRB assay, 5 days, trastuzumab alone at 0.4 µg/ml: 50.7%
  % Inhibition of cell growth, SKBr3 cells (HER-2+), SRB assay, 5 days, trastuzumab alone at 10 µg/ml: 53.9%
  % Inhibition of cell growth, SKBr3 cells (HER-2+), SRB assay, 5 days, trastuzumab alone at 50 µg/ml: 55.6%
